Data taken from ChEMBL document CHEMBL1132571, “1-aryl-4-[(5-methoxy-1,2,3, 4-tetrahydronaphthalen-1-yl)alkyl]piperazines and their analogues: influence of the stereochemistry of the tetrahydronaphthalen-1-yl nucleus on 5-HT1A receptor affinity and selectivity versus alpha1 and D2 receptors. 5” (J Med Chem, 1999).

Amino acid sequences for entries named in this document (tags omitted).
UniProt P19327, whole entry: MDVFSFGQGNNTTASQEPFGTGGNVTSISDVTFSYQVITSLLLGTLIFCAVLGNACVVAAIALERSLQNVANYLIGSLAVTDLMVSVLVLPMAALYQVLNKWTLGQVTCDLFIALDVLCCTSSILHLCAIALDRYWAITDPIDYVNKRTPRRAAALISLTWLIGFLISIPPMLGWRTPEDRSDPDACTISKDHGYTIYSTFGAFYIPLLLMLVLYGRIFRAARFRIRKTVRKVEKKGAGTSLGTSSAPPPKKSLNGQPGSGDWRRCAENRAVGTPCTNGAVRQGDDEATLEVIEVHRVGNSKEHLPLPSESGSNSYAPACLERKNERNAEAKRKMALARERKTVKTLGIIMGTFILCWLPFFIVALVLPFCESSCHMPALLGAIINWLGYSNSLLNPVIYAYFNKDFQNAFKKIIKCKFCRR

Biological target: 5-hydroxytryptamine receptor 1A (Rattus norvegicus, UniProt P19327)
Test: In vitro inhibition of [3H]8-OH-DPAT binding to rat 5-HT 1a receptors.
How it was run: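 Rat hippocampal membranes labelled with [3H]-8-OH-DPAT by standard binding methods, in competition with eight to nine test concentrations. Specific binding was over 80% of total. IC50 derived from inhibition of specific radioligand binding by LIGAND analysis.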

Row | IC50 [nM] | SMILES
1 | 320 | COc1ccccc1N1CCN(CCC(=O)N[C@@H]2CCCc3c(OC)cccc32)CC1
2 | 89 | COc1ccccc1N1CCN(CCC(=O)N[C@H]2CCCc3c(OC)cccc32)CC1
